Consider one compound from ChEMBL document CHEMBL1126087, “(E)-1,3-dialkyl-7-methyl-8-(3,4,5-trimethoxystyryl)xanthines: potent and selective adenosine A2 antagonists” (J Med Chem, 1992).

Chains of the proteins cited; added tags and fusions are not shown.
UniProt P25099, whole entry: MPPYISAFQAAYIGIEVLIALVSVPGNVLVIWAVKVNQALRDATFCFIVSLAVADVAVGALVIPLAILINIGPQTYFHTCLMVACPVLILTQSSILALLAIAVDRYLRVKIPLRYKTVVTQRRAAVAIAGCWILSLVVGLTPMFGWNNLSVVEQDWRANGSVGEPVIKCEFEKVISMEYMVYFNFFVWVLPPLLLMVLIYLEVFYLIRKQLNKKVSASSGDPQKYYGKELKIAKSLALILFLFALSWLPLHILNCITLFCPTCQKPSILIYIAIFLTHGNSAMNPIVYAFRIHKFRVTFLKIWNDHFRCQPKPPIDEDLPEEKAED

The target in the experiment is Adenosine receptor A1 (Rattus norvegicus, UniProt P25099).

With `CCCn1c(=O)c2nc(/C=C/c3ccccc3)[nH]c2n(CCC)c1=O`, affinity was put at a Ki of 35 nM. This lies in the double-digit nanomolar range.

Broadly, the Ki is a dissociation constant, usually derived from enzyme kinetics or from competition with a known ligand. A higher Ki goes with a looser hold on the target.
